Test results taken from patent US20220018852A1, “METHODS AND KITS FOR DETECTING LIVER DYSFUNCTION IN A SUBJECT” (priority 2018, published 2022).

The chains behind the UniProt entries cited, without tags or fusion partners. Residues count along the entry.
UniProt P02768, 25-609: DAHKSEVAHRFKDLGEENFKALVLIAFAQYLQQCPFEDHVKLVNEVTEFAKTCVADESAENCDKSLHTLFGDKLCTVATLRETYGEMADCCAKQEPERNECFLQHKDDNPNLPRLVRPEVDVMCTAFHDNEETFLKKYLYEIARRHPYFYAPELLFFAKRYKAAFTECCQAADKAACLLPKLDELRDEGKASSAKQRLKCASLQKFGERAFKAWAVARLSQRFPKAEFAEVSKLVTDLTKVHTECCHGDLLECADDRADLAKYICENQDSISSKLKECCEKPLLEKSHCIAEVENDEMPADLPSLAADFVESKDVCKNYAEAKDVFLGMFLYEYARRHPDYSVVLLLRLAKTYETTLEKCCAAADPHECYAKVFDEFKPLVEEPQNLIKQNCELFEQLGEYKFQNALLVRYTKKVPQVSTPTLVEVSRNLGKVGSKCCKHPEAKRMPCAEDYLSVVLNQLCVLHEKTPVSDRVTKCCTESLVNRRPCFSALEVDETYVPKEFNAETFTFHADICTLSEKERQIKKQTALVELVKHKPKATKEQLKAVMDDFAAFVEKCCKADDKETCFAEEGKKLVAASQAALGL

Molecular target: HSA (Homo sapiens, UniProt P02768)
Experiment: Same binding test with Vialebex commercial albumin solution at 200 mg/mL
Conditions: Vialebex commercial solution of pure HSA

O.O.O.[Cl][Au]([Cl])[Cl] [Au, gold(III) chloride trihydrate]
ligand/HSA retention ratio: 150
